One molecule from ChEMBL document CHEMBL4033632, “Design, synthesis and biological activity of novel donepezil derivatives bearing N-benzyl pyridinium moiety as potent and dual binding site acetylcholinesterase inhibitors” (Eur J Med Chem, 2017) can be followed below.

Amino acid sequences for entries named in this document (tags omitted).
UniProt P05067, whole entry: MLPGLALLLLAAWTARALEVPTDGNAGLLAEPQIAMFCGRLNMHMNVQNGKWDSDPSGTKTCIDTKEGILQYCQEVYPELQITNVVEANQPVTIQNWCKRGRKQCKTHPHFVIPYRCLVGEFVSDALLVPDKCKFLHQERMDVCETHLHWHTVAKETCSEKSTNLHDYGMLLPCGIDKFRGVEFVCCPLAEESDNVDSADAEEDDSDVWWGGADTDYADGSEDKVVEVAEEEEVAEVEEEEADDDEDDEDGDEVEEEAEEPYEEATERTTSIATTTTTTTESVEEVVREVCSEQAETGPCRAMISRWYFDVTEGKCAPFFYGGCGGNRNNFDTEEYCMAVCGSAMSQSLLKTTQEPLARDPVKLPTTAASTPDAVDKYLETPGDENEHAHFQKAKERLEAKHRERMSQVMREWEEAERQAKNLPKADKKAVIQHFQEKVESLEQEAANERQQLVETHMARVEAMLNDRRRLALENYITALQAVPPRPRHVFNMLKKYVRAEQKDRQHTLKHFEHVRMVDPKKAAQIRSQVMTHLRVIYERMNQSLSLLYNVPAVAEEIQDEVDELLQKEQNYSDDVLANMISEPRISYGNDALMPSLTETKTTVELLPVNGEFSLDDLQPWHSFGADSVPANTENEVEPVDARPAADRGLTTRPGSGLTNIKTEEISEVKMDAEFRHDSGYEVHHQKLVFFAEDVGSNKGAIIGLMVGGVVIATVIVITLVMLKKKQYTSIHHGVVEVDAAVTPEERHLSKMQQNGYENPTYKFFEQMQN

The assay addresses Amyloid-beta precursor protein (Homo sapiens) (UniProt P05067). The experiment in a line: Inhibition of amyloid beta (1 to 42) (unknown origin) self-induced aggregation assessed as reduction in amyloid beta fibrils by transmission electron microscopic analysis.

Calls of active or inactive are those of the source. The calls are words filed in the database; no cut-off is given here.

On to `COc1cc(/C=C/C(=O)CC(=O)/C=C/c2ccc(O)c(OC)c2)ccc1O`, for which the inhibition entry is “Active”.
